## Antibody variant affinities, Ab-14 heavy chain, assay B

All variants were tested on one target, the spike HR2 peptide PDVDLGDISGINAS (SARS-CoV-2).

Each scFv is VH, a (GGGGS)3 linker, VL, as in the parent Ab-14, and differs from it in the CDRs of the heavy chain only.
VH: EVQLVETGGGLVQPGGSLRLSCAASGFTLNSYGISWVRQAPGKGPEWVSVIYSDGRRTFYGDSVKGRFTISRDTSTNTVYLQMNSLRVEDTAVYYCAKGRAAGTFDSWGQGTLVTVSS
VL: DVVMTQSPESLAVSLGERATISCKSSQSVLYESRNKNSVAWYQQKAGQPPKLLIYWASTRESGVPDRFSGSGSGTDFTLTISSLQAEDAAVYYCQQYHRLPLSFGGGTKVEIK

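The starting antibody came from a phage panning campaign against this peptide. The variants were designed computationally from a first round of random CDR variants and then made and measured. Their group label is 14H_En_Gibbs (En: ensemble of fine-tuned language models; Gibbs: Gibbs sampling). Affinity was read by AlphaSeq, a pooled yeast mating assay with surface-displayed partners. Binding brings cells together so that they mate, and sequencing counts the barcode pairs among the diploids. The ratio of observed to expected reads was calibrated, replicate by replicate, on BCL2-family standards whose Kd was known from biolayer interferometry. Mating was done six times.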

The parent's heavy chain CDRs are GFTLNSYGIS, VIYSDGRRTFYGDSVK, GRAAGTFDS; each variant's own CDRs replace them letter for letter. The read-out is the apparent dissociation constant on a log10 scale (nM): the lower, the stronger. A pair that was not seen in that replicate is written "ND"; this usually means weak binding, but a binder can also be missed. Of ten entries with the parent sequence, four were seen in most replicates (averages 0.34 to 2.37), three in one and three in none, so single entries are noisy. Values of this round are not directly comparable with the first-round values of the same sequences. In the paper, a design with two or fewer of six values counts as a poor binder. As a blank, each scFv also met three strains without target: over all heavy chain designs, 1% of these pairings were detected, typically at 2.08 and seldom below 0.84. Also given: how often the same scFv was detected with the empty control strains, with their mean in brackets.

| CDR-H1 | CDR-H2 | CDR-H3 | replicates, log10 nM | empty controls |
|---|---|---|---|---|
| GMNLDEYGIS | VIYADGKRCAYANTVK | GELAGFFML | ND ND ND ND ND ND | 0/18 |
| GFNLDEYGIS | VIYADGRRMSYTDSVK | GGLDKYLTD | ND ND ND ND 3.12 ND | 1/18 (1.67) |
| GFDLEEYGIS | VIYADGMRTQYINAVK | GIIGDIMDL | ND ND ND ND ND ND | 0/18 |
| GSDLNEYGIS | VIYADGKRSYYTDSVK | GGYNIGASV | 2.02 2.00 1.09 1.68 0.95 2.18 | 0/18 |
| GFDLEKYGIS | VIYADGKRVAYQDAVK | GGTGGMFMS | ND ND ND ND ND ND | 0/18 |
| GADLNEYGIS | VIYADGRSVYYANSFK | GHNAGTFDS | 1.74 1.98 ND 2.70 1.70 2.78 | 2/18 (2.22) |
| GFDIQDYGIS | VIYADGSRTAYTNSVK | GVQGAFYDL | ND 2.48 ND ND ND ND | 1/18 (2.18) |
| GFQINEYGIS | VIYADGLRTAYSQQVK | GQDLVNFVD | ND ND ND ND ND ND | 0/18 |
| GFDINEYGIS | VIYADGNRTMYQDQVK | GENGGSFVL | ND ND ND ND ND ND | 1/18 (1.48) |
| GFDLDSYGIS | VIYADGRRKAYHDSVK | GQNGSVSFV | ND ND ND ND ND ND | 0/18 |
| GFSLEEYGIS | VIYADGKRTFYTNAVK | GTWGVFGLG | ND ND ND ND ND ND | 0/18 |
| GFDLNEYGIS | VMYADGSRRVYQDKVK | GFQSGTFDT | -0.33 0.60 -0.02 -0.57 -0.83 -0.64 | 0/18 |
| GFEIQEYGIS | VIYADGRRTAYAENVK | GTWAGTLST | 1.23 0.62 1.15 1.81 0.61 1.87 | 0/18 |
| GFNLSEYGIS | VIYADGMRSNYANSVK | GHKGNFFID | ND ND ND ND ND ND | 1/18 (2.49) |
| GMDLNEYGIS | VIYADGRRTAYINQVK | GSNSDTVSS | ND ND ND ND ND ND | 0/18 |
| GFSLDEQGIS | VIYADGIRRVYVDKVK | GQYGGDFIE | ND ND ND ND ND ND | 0/18 |
| GFSLDEYGIS | VIYADGLRTQYHNKVK | GLQGGIFDQ | ND ND ND ND ND ND | 0/18 |
| GDNLDEYGIS | VIYADGQRTAYDDPVK | GGQGGTVMV | ND ND ND ND ND ND | 0/18 |
| GFGLGEYGIS | VIYADGTRAAYVTKVK | GSIAGTFFT | ND ND ND 2.69 ND ND | 0/18 |
| GFLIEEYGIS | VIYADGVRKAYQNSFK | GEVGGTFTN | 0.22 0.37 1.33 0.56 0.38 0.25 | 0/18 |
| GFNLEEYGIS | VIYADGFRASYTDDVK | GQNGSVNLR | ND ND ND ND ND ND | 0/18 |
| GFVLSEYGIS | VIYADGQRTFYAPNVK | GQLNVVLNG | 0.39 0.04 -0.13 -0.38 -0.11 0.45 | 0/18 |
| GFDLNEYGIS | VIYADGMRSALINSVK | GTLSGTFIA | ND ND ND ND ND ND | 0/18 |
| GFSLDEYGIS | VIYADGMRTATVNSVK | GTIDNNITT | ND ND ND ND ND ND | 1/18 (2.11) |
| GFDLSEYGIS | VIYADGERANYVSNVK | GEQAGGFVL | ND ND 1.82 ND ND ND | 0/18 |
| GFDLGEYGIS | VIYADGKRTACVENVK | GTFGGTLLD | ND ND ND ND ND ND | 0/18 |
| GMDLQEFGIS | VIYADGVREYYKDDFK | GQIAGTFDD | -0.11 -0.32 -0.20 -0.14 0.08 0.19 | 0/18 |
| GFDLAEYGIS | VIYADGSRTAYNQNVK | GLKGDSYDI | ND ND ND ND ND ND | 0/18 |
| GFDVDEQGIS | VIYADGRRSQYANSVK | GANGGMFDM | ND ND ND ND ND ND | 0/18 |
| GFNLDEMGIS | VIYADGSRQVYADSFK | GHFGGNKIN | 0.57 0.20 ND 0.76 0.16 -0.03 | 0/18 |
| GKGLDEYGVS | VIYADGKRTSYVDDVK | GGIAGQFLV | ND ND ND ND ND ND | 0/18 |
| GENLDEYGIS | VIYADGIREAYANQVK | GEQGGYFNT | ND ND ND ND ND ND | 0/18 |
| GNTLDEYGIS | VIYADGVRMAYINKFK | GMYTGTFDQ | ND ND ND ND ND ND | 0/18 |
| GDNLEEYGIS | VIYADGFRSHYAEKVK | GQQAGFFIK | ND ND ND ND ND ND | 0/18 |
| GDSLDEYGIS | VIYADGQRVQYVDPVK | GIQAGNVDV | ND ND ND ND ND ND | 0/18 |
| GVDIDEYGIS | VIYADGIRTFYIDKVK | GNVGGQFDT | 0.69 2.93 1.00 3.22 0.72 1.24 | 0/18 |
| GFDIDEYGIS | VIYADGTRTAVDNSFK | GQMAGFFTN | 1.91 ND ND ND ND ND | 0/18 |
| GFDLSEYGIS | VIYADGTRKSYADNVK | GDYHYVVST | ND ND ND ND ND ND | 1/18 (2.18) |
| GEDLNSYGIS | VIYADGVRTAYADNFK | GNGEGQFDV | ND ND ND ND ND ND | 0/18 |
| GDKLEDYGIS | VIYADGRRRAYVENVK | GVYAGYFDV | ND ND ND ND ND ND | 0/18 |
| GFDINEYGIS | VIYADGSRTAYANTVK | GQWGCVFYV | ND ND ND ND ND ND | 0/18 |
| KFDLEAYGIS | VIYADGVRTGYVDKVK | GDTGGMFDM | ND ND ND ND ND ND | 0/18 |
| GFDIEDYGIS | VIYADGMRSSYSNSFK | GLQSGNISV | ND 2.45 2.98 ND ND ND | 2/18 (2.30) |
| GDDLEAYGIS | VIYADGMRTYYSDQVK | GNVNGTFFD | ND ND ND ND ND 5.32 | 2/18 (3.33) |
| KFNIEEYGIS | VIYADGKRTSYSNAVK | GNQGRTFNT | ND 2.36 ND 3.57 1.99 ND | 0/18 |
| GFDVNEYGIS | VIYADGVRRTYQDAVK | GDQSGVVDV | ND ND ND ND ND ND | 0/18 |
| GFDIEEYGIS | VIYADGLRQYYKDNFK | GWNDGTIAV | ND ND ND ND ND ND | 0/18 |
| GFDLEEYGVS | VIYADGHRTAYSDNVK | GVESASIQN | ND ND ND ND ND ND | 0/18 |
| GFALDEYGIS | VIYADGTRSAYLETVK | GHVGADFIV | ND ND 3.96 ND ND ND | 1/18 (2.37) |
| GFDLGEYGIS | VIYADGRRFSYKDAVK | GQVEGMLDV | ND ND ND ND ND ND | 0/18 |
| GYDLQEYGVS | VIYADGRRSVYINSVK | GGSAGTFVF | 0.98 0.71 ND 0.18 1.41 0.88 | 0/18 |

Top 3 of the variants detected in all replicates, tightest first:

| CDR-H1 | CDR-H2 | CDR-H3 | replicates, log10 nM | empty controls |
|---|---|---|---|---|
| GFDLNEYGIS | VMYADGSRRVYQDKVK | GFQSGTFDT | -0.33 0.60 -0.02 -0.57 -0.83 -0.64 | 0/18 |
| GMDLQEFGIS | VIYADGVREYYKDDFK | GQIAGTFDD | -0.11 -0.32 -0.20 -0.14 0.08 0.19 | 0/18 |
| GFVLSEYGIS | VIYADGQRTFYAPNVK | GQLNVVLNG | 0.39 0.04 -0.13 -0.38 -0.11 0.45 | 0/18 |

Source: Li et al. 2023 (doi:10.1038/s41467-023-39022-2), MIT Lincoln Laboratory and A-Alpha Bio; data file from the FLAb repository.